These results are taken from PubChem BioAssay (NCI).

The list shows a part of the results, in another mix than the full data.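 The endpoint reported here, percent growth, reads 100 for growth as untreated, 0 for no net growth and -100 for all cells dead.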 Active and inactive are the calls of the source. Rule for the calls: active = growth percent below 10; inactive = the rest.

Holding throughout (experiment): NCI-60 one-dose screen, 48 h (100 = growth as untreated, 0 = no growth, -100 = all killed)
For one assay, the system named is DU-145 prostate. The conditions noted are these: 10 µM unless noted.
The next assay deals with MALME-3M melanoma. Particulars: 10 µM unless noted.
The subject of a further assay is MDA-MB-231 breast. Particulars: 10 µM unless noted.
Another assay concerns RXF 393 renal. The conditions noted are these: 10 µM unless noted.
The subject of another assay is SF-268 CNS. The conditions noted are these: 10 µM unless noted.
For the next assay, the system named is SF-295 CNS. The conditions noted are these: 10 µM unless noted.
The next assay concerns SF-539 CNS. The conditions noted are these: 10 µM unless noted.
In a further assay the test system is UACC-257 melanoma. Particulars: 10 µM unless noted.
The subject of the next assay is M14 melanoma. Particulars: 10 µM unless noted.
A further assay has as its system HCT-15 colon. The conditions noted are these: 10 µM unless noted.
The subject of a further assay is HT29 colon. The conditions noted are these: 10 µM unless noted.
Another assay deals with SNB-75 CNS. Particulars: 10 µM unless noted.
The next assay concerns SNB-19 CNS. The conditions noted are these: 10 µM unless noted.
The next assay concerns U251 CNS. The conditions noted are these: 10 µM unless noted.
In another assay the test system is PC-3 prostate. Particulars: 10 µM unless noted.
The next assay has as its system SK-MEL-5 melanoma. The conditions noted are these: 10 µM unless noted.
The subject of the next assay is UACC-62 melanoma. Particulars: 10 µM unless noted.
A further assay deals with LOX IMVI melanoma. Particulars: 10 µM.
In a further assay the test system is SK-MEL-28 melanoma. The conditions noted are these: 10 µM unless noted.
The next assay relates to K-562 leukemia. The conditions noted are these: 10 µM unless noted.

As for `NC(=O)Nc1ccc([As](=O)(O)O)cc1`, the growth is inactive: 121% in the assay with DU-145 prostate; inactive: 109% with MALME-3M melanoma; inactive: 109% with MDA-MB-231 breast; inactive: 113% in the assay with RXF 393 renal; inactive: 114% with SF-268 CNS; inactive: 98.2% in the assay on SF-295 CNS. The growth in the assay on SF-539 CNS was inactive: 105%; in the assay with UACC-257 melanoma, inactive: 103%; in the assay with M14 melanoma it was inactive: 109%; with HCT-15 colon it was inactive: 99.2%; with HT29 colon, inactive: 96.5%; in the assay on SNB-75 CNS, inactive: 73.2%. Besides, the growth in the assay on SNB-19 CNS is inactive: 103%; in the assay on U251 CNS it was inactive: 101%; in the assay with PC-3 prostate, inactive: 96.1%; in the assay on SK-MEL-5 melanoma it was inactive: 104%; in the assay on UACC-62 melanoma it was inactive: 104%; with LOX IMVI melanoma, inactive: 93.3%. Besides, in the assay with SK-MEL-28 melanoma, the growth is inactive: 108%.

In the case of `Nc1ccc(N=Nc2ccc([As](=O)(O)O)cc2)cc1`, the growth with DU-145 prostate is inactive: 126%; in the assay on MALME-3M melanoma, inactive: 97.3%; with MDA-MB-231 breast it was inactive: 99.2%; in the assay with SF-268 CNS, inactive: 102%; in the assay on SF-295 CNS it was inactive: 109%; with SF-539 CNS, inactive: 95.7%. The growth was inactive: 109% with UACC-257 melanoma; inactive: 107% in the assay on M14 melanoma; inactive: 100% in the assay with HCT-15 colon; inactive: 97.4% in the assay with HT29 colon; inactive: 85.7% in the assay on SNB-75 CNS; inactive: 107% in the assay with SNB-19 CNS. The growth in the assay with U251 CNS is inactive: 107%; in the assay with PC-3 prostate, inactive: 99.8%; in the assay with UACC-62 melanoma, inactive: 111%; with LOX IMVI melanoma it was inactive: 104%; in the assay with SK-MEL-28 melanoma it was inactive: 109%.

Regarding `COc1cc(I)ccc1[As](=O)(O)O`, the growth is inactive: 111% in the assay on DU-145 prostate; inactive: 98.3% in the assay with K-562 leukemia; inactive: 137% in the assay with MALME-3M melanoma; inactive: 111% in the assay with MDA-MB-231 breast; inactive: 105% with SF-268 CNS; inactive: 103% in the assay with SF-295 CNS. Besides, the growth is inactive: 99.2% in the assay with SF-539 CNS; inactive: 91.2% with UACC-257 melanoma; inactive: 106% in the assay on M14 melanoma; inactive: 92.7% in the assay with HCT-15 colon; inactive: 103% in the assay on HT29 colon; inactive: 103% with SNB-75 CNS. Also, the growth in the assay with U251 CNS is inactive: 91.5%; in the assay on SK-MEL-5 melanoma, inactive: 103%; with UACC-62 melanoma, inactive: 95.6%; with LOX IMVI melanoma it was inactive: 94%; in the assay with SK-MEL-28 melanoma it was inactive: 195%.

Turning to `CN(C)C(=O)Oc1ccc(/C=N/NC(N)=S)nc1`, the growth with DU-145 prostate is inactive: 91.5%; in the assay with K-562 leukemia, inactive: 96.5%; with MALME-3M melanoma, inactive: 110%; with MDA-MB-231 breast, inactive: 74.5%; with SF-268 CNS, inactive: 81.5%; in the assay with SF-539 CNS, inactive: 89.8%. The growth with UACC-257 melanoma was inactive: 106%; in the assay with M14 melanoma it was inactive: 90.7%; with HCT-15 colon, inactive: 78.4%; with HT29 colon it was inactive: 103%; with SNB-75 CNS, inactive: 57.6%; in the assay with SNB-19 CNS, inactive: 104%. Besides, the growth is inactive: 92.4% in the assay on PC-3 prostate; inactive: 89.9% in the assay on SK-MEL-5 melanoma; inactive: 98.9% in the assay with UACC-62 melanoma; inactive: 89.7% in the assay with LOX IMVI melanoma; inactive: 94% with SK-MEL-28 melanoma.

In the case of `CC[C@H](C)[C@@H]1NC(=O)/C(=C(\C)O)C1=O`, the growth in the assay with DU-145 prostate was inactive: 121%; with K-562 leukemia it was inactive: 109%; in the assay on MALME-3M melanoma, inactive: 97.3%; in the assay with MDA-MB-231 breast, inactive: 101%; in the assay with SF-268 CNS, inactive: 99.2%; in the assay with SF-295 CNS, inactive: 95.2%. Further, the growth with SF-539 CNS was inactive: 96.8%; with UACC-257 melanoma, inactive: 107%; with M14 melanoma, inactive: 115%; in the assay on HCT-15 colon it was inactive: 106%; in the assay on HT29 colon, inactive: 110%; with SNB-75 CNS, inactive: 85%. Moreover, the growth in the assay with SNB-19 CNS is inactive: 92.6%; in the assay with U251 CNS it was inactive: 96.8%; with PC-3 prostate, inactive: 108%; in the assay with SK-MEL-5 melanoma, inactive: 91.5%; in the assay on LOX IMVI melanoma it was inactive: 93.6%; in the assay with SK-MEL-28 melanoma, inactive: 101%.

Take `[N-]=[N+]=NS(=O)(=O)c1ccc([N+](=O)[O-])cc1`: the growth is inactive: 103% with DU-145 prostate; inactive: 98.1% in the assay on K-562 leukemia; inactive: 101% in the assay with MDA-MB-231 breast; inactive: 103% in the assay with RXF 393 renal; inactive: 98.4% in the assay with SF-268 CNS; inactive: 97.2% in the assay on SF-295 CNS. For the same molecule, the growth with SF-539 CNS was inactive: 102%; in the assay on UACC-257 melanoma it was inactive: 104%; in the assay on M14 melanoma, inactive: 107%; with HCT-15 colon, inactive: 117%; in the assay on HT29 colon, inactive: 107%; in the assay with SNB-75 CNS, inactive: 98.4%. The growth is inactive: 110% in the assay on SNB-19 CNS; inactive: 103% with U251 CNS; inactive: 93.6% in the assay on PC-3 prostate; inactive: 101% in the assay on SK-MEL-5 melanoma; inactive: 101% in the assay with UACC-62 melanoma; inactive: 96.7% in the assay with LOX IMVI melanoma. Further, in the assay with SK-MEL-28 melanoma, the growth was inactive: 106%.

For `CCN(CC)[P+](c1ccc(OC)cc1OC)(N(CC)CC)N(CC)CC`, the growth was inactive: 32.8% in the assay with DU-145 prostate; inactive: 15.5% in the assay with K-562 leukemia; inactive: 59.9% in the assay on MALME-3M melanoma; inactive: 47.8% in the assay with MDA-MB-231 breast; inactive: 34.3% with SF-268 CNS; active: 1.82% with SF-295 CNS. The growth in the assay on SF-539 CNS was inactive: 73.2%; in the assay with UACC-257 melanoma it was active: -13.4%; with M14 melanoma, inactive: 43.3%; with HCT-15 colon, inactive: 99.2%; in the assay on HT29 colon, inactive: 24.4%; in the assay on SNB-75 CNS, inactive: 30.2%. In addition, the growth with SNB-19 CNS was inactive: 41.2%; in the assay with PC-3 prostate it was inactive: 15.8%; with SK-MEL-5 melanoma it was active: 0.745%; in the assay with UACC-62 melanoma, inactive: 39.7%; in the assay on LOX IMVI melanoma it was active: -25.9%; in the assay with SK-MEL-28 melanoma it was inactive: 65.6%.

Consider `O=P(O)(NCCCO)N(CCCl)CCCl`, for which the growth in the assay on DU-145 prostate was inactive: 118%; with K-562 leukemia, inactive: 109%; with MALME-3M melanoma, inactive: 144%; with MDA-MB-231 breast it was inactive: 101%; in the assay with SF-268 CNS, inactive: 98%; with SF-295 CNS, inactive: 79.9%. Also, the growth in the assay on SF-539 CNS was inactive: 98.7%; with M14 melanoma it was inactive: 100%; in the assay on HCT-15 colon, inactive: 95.5%; in the assay with HT29 colon it was inactive: 110%; in the assay on SNB-75 CNS, inactive: 69.9%; in the assay with SNB-19 CNS it was inactive: 92.1%. Also, the growth in the assay with U251 CNS is inactive: 87.8%; in the assay with PC-3 prostate it was inactive: 120%; in the assay on SK-MEL-5 melanoma, inactive: 106%; in the assay on UACC-62 melanoma it was inactive: 95.4%; with LOX IMVI melanoma, inactive: 103%; in the assay on SK-MEL-28 melanoma, inactive: 116%.

For `COC1OC(CNCCCl)C2OC(C)(C)OC12` (configuration not stated), the growth is inactive: 126% with DU-145 prostate; inactive: 133% with K-562 leukemia; inactive: 143% in the assay on MALME-3M melanoma; inactive: 111% with MDA-MB-231 breast; inactive: 113% in the assay with SF-268 CNS; inactive: 112% in the assay with SF-295 CNS. For the same molecule, the growth with SF-539 CNS is inactive: 98.2%; in the assay with UACC-257 melanoma, inactive: 93.9%; with M14 melanoma, inactive: 103%; with HCT-15 colon, inactive: 107%; with HT29 colon it was inactive: 104%; in the assay on SNB-75 CNS, inactive: 70.1%. Also, the growth in the assay on SNB-19 CNS was inactive: 96.7%; with U251 CNS, inactive: 99.2%; in the assay with PC-3 prostate, inactive: 115%; in the assay with SK-MEL-5 melanoma, inactive: 112%; in the assay on UACC-62 melanoma, inactive: 97%; with LOX IMVI melanoma, inactive: 108%. Also, the growth with SK-MEL-28 melanoma is inactive: 126%.
